Target: GR (Homo sapiens, UniProt P04150)
Experiment: GR binding
Conditions: read-out: Mean GR Binding IC50

Protein sequences, listed by entry. Tags and fused reporters are not part of them.
UniProt P04150, whole entry: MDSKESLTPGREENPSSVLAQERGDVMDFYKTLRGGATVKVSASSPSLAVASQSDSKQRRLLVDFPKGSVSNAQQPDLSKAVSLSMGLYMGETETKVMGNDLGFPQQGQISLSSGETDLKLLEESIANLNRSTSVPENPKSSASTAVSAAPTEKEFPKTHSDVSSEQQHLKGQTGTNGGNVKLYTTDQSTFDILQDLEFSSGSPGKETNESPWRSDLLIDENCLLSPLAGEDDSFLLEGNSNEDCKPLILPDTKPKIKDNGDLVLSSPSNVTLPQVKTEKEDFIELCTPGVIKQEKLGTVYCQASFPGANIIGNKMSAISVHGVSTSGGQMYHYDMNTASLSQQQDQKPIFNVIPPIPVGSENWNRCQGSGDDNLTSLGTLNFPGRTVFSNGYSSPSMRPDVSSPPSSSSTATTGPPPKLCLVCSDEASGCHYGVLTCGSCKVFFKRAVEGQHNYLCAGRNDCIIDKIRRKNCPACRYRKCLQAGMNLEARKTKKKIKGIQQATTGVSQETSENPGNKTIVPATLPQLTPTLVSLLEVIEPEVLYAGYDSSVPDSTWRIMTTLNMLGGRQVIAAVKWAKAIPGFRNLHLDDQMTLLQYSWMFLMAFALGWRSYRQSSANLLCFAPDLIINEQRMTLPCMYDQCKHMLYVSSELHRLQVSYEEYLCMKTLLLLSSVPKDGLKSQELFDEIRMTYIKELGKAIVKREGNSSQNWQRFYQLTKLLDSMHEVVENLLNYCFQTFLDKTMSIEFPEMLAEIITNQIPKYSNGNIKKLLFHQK

SMILES: O=c1[nH]c(C2CC=C(c3cccnc3C(F)(F)F)CC2)c(Cc2ccccc2)c(=O)[nH]1 (stereo not shown) [Example 14]
- IC50: 459 nM

From patent US12018001B2, “Pyrimidine cyclohexenyl glucocorticoid receptor modulators” (priority 2018, dated 2024)
